Reference: PubChem BioAssay (NCI)
Where “and” joins values, the source holds several entries; their conditions need not be identical. Identical values can stand only once. Only a part is listed here, and it is no random draw.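 Cells were grown in 96-well plates and exposed to the test compound at a single concentration for 48 hours; results are reported as percent growth, with values below 10 considered active.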 Calls of active or inactive are those of the source.

Columns and labels:
Assay in all cases: NCI-60 one-dose screen, 48 h (100 = growth as untreated, 0 = no growth, -100 = all killed)
[1] = test system: HCT-15 colon; settings: 10 µM unless noted
[2] = test system: HT29 colon; settings: 10 µM unless noted
[3] = test system: SNB-75 CNS; settings: 10 µM unless noted
[4] = test system: SNB-19 CNS; settings: 10 µM unless noted
[5] = test system: U251 CNS; settings: 10 µM unless noted
[6] = test system: PC-3 prostate; settings: 10 µM unless noted
[7] = test system: SK-MEL-5 melanoma; settings: 10 µM unless noted
[8] = test system: UACC-62 melanoma; settings: 10 µM unless noted
[9] = test system: LOX IMVI melanoma; settings: 10 µM
[10] = test system: SK-MEL-28 melanoma; settings: 10 µM unless noted

Row | SMILES | growth [1] | growth [2] | growth [3] | growth [4] | growth [5] | growth [6] | growth [7] | growth [8] | growth [9] | growth [10]
1 | O=P(CCl)(Sc1ccc(Cl)cc1)N(CCCl)CCCl (stereo not given) | inactive: 85% | inactive: 89.1% | inactive: 71.1% | inactive: 93.4% | inactive: 94.7% | inactive: 76.7% | inactive: 98.5% | inactive: 92.6% | inactive: 99.1% | inactive: 99.7%
2 | CCOP(=O)(Nc1ccccc1Cl)OCC | inactive: 103% | inactive: 109% | inactive: 87.2% | inactive: 112% | inactive: 105% | inactive: 90% | inactive: 92.9% | inactive: 101% | inactive: 89.5% | inactive: 108%
3 | CCN(CCCl)Cc1cccc2ccccc12 | inactive: 97.3% | inactive: 93.3% | inactive: 39.7% | inactive: 102% | inactive: 88.1% | inactive: 85.4% | inactive: 102% | inactive: 99.2% | inactive: 107% | inactive: 103%
4 | ClCCN(Cc1ccc(Cl)cc1)Cc1ccc(Cl)cc1 | inactive: 85.5% | inactive: 74.6% | inactive: 89.7% | inactive: 84.4% | inactive: 87.5% | inactive: 42% | inactive: 91% | inactive: 72.8% | inactive: 81.7% | inactive: 113%
5 | O=[N+]([O-])c1ccc(Nc2ccc(Oc3ccc([N+](=O)[O-])cc3[N+](=O)[O-])cc2)c([N+](=O)[O-])c1 | inactive: 78.2% | inactive: 91.7% | inactive: 42.8% | inactive: 96.8% | inactive: 78% | inactive: 81.7% | inactive: 75.4% | inactive: 56% | inactive: 55.9% | inactive: 118%
6 | CC(C)(NCCCl)C(O)c1ccccc1 (stereo not given) | inactive: 94% | inactive: 66.7% | inactive: 77.7% | inactive: 93.2% | inactive: 77.6% | inactive: 58.2% | inactive: 95% | inactive: 85.3% | inactive: 93.4% | inactive: 105%
7 | O=[As](O)(O)c1ccc(I)cc1 | inactive: 103% | inactive: 105% | inactive: 88.4% | inactive: 103% | inactive: 95.7% | inactive: 98% | inactive: 109% | inactive: 100% | inactive: 71.3% | inactive: 104%
8 | O=C(OC1CN2CCC1CC2)c1ccccc1 (stereo not given) | inactive: 102% | inactive: 106% | inactive: 98.4% | inactive: 104% | inactive: 105% | inactive: 90.9% | inactive: 97.8% | inactive: 107% | inactive: 102% | inactive: 119%
9 | O=C(O)C(=O)c1ccc(N(CCCl)CCCl)cc1 | inactive: 99.3% | inactive: 102% | inactive: 94.8% | inactive: 102% | inactive: 99.9% | inactive: 106% | inactive: 101% | inactive: 98.9% | inactive: 95.4% | inactive: 110%
10 | CCOP(=O)(CCCBr)OCC | inactive: 104% | inactive: 101% | inactive: 83.5% | inactive: 100% | inactive: 102% | inactive: 97.5% | inactive: 98.2% | inactive: 103% | inactive: 104% | inactive: 103%
11 | CCOP(=S)(OCC)OCC | inactive: 94.9% | inactive: 96.2% | inactive: 89.5% | inactive: 103% | inactive: 102% | inactive: 102% | inactive: 104% | inactive: 106% | inactive: 100% | inactive: 106%
12 | O=C(Nc1cc([As](=O)(O)O)ccc1O)c1ccccc1 | inactive: 108% | inactive: 106% | inactive: 105% | inactive: 96.9% | inactive: 95.3% | inactive: 95.9% | inactive: 97.9% | inactive: 89.8% | inactive: 96.8% | inactive: 113%
13 | COc1cccc([As]=O)c1 (stereo not given) | active: -87.9% | active: -46.8% | active: -98.7% | active: -99.2% | active: -93.8% | active: -93.3% | active: -95.2% | active: -97.3% | active: -40% | active: -94.7%
14 | O=[N+]([O-])N1CCCS1(=O)=O | inactive: 106% | inactive: 97.5% | inactive: 87.9% | inactive: 114% | inactive: 97.6% | inactive: 81.6% | inactive: 99.5% | inactive: 113% | inactive: 97.9% | inactive: 106%
15 | CCSC(O)C(Cl)(Cl)Cl (stereo not given) | inactive: 99.3% | inactive: 107% | inactive: 102% | inactive: 104% | inactive: 104% | inactive: 102% | inactive: 97.9% | inactive: 104% | inactive: 103% | inactive: 113%
16 | CC(Cl)CN(CC(C)Cl)C(=O)c1ccccc1 (stereo not given) | inactive: 97.5% | inactive: 98.2% | inactive: 85.1% | inactive: 113% | inactive: 99.7% | inactive: 89.9% | inactive: 95.1% | inactive: 108% | inactive: 93.7% | inactive: 94.5%
17 | [N-]=[N+]=NC(=O)c1cccc([N+](=O)[O-])c1 | inactive: 57.4% | inactive: 78.5% | inactive: 105% | inactive: 73.4% | inactive: 58% | inactive: 28.4% | inactive: 76% | inactive: 64.9% | inactive: 60% | inactive: 97.4%
18 | CC(Cl)CN(CC(C)Cl)C(=O)OCC(N)C(=O)O (stereo not given) | inactive: 121% and inactive: 98.4% | inactive: 105% and inactive: 116% | inactive: 95.6% and inactive: 60.4% | inactive: 97.1% and inactive: 98.7% | inactive: 104% and inactive: 95.9% | inactive: 91.6% and inactive: 110% | inactive: 106% and inactive: 87.1% | inactive: 98.5% and inactive: 96.7% | inactive: 92.6% and inactive: 102% | inactive: 110% and inactive: 123%
19 | O=P(Cl)(N1CCCCCC1)N1CCCCCC1 | inactive: 105% | inactive: 102% | inactive: 101% | inactive: 97% | inactive: 101% | inactive: 93.9% | inactive: 98.7% | inactive: 97.2% | inactive: 101% | inactive: 101%
20 | Cc1ccc(OP(=O)(Nc2ccc([N+](=O)[O-])cn2)Oc2ccc(C)cc2)cc1 | inactive: 98.8% | inactive: 108% | inactive: 101% | inactive: 116% | inactive: 96.9% | inactive: 91.6% | inactive: 97.9% | inactive: 82.1% | inactive: 99.2% | inactive: 119%
21 | CCN(CCCl)c1ccc(CCC(=O)O)cc1 | inactive: 97.1% | inactive: 88.3% | inactive: 96.4% | inactive: 95.4% | inactive: 92% | inactive: 91.7% | inactive: 99.9% | inactive: 64.4% | inactive: 99.8% | inactive: 104%
22 | COc1cc([N+](=O)[O-])c(Nc2ccc(Cl)cc2[N+](=O)[O-])c([N+](=O)[O-])c1 | inactive: 30.3% | inactive: 48.5% | inactive: 63.9% | inactive: 89.1% | inactive: 70.6% | inactive: 57.6% | inactive: 74.2% | inactive: 59.7% | inactive: 40.7% | inactive: 98.7%
23 | S=C(Nc1ccccc1)N(CCCl)CCCl | inactive: 88.4% | inactive: 90.4% | inactive: 116% | inactive: 102% | inactive: 100% | inactive: 91.1% | inactive: 104% | inactive: 105% | inactive: 96.9% | inactive: 104%
24 | O=S1(=O)CC(Sc2ccccc2)[C@@H](Cl)C1 (stereo not given in full) | inactive: 104% | inactive: 102% | inactive: 93.7% | inactive: 104% | inactive: 94.6% | inactive: 92.6% | inactive: 99.1% | inactive: 102% | inactive: 104% | inactive: 119%
25 | O=[N+]([O-])c1ccc([N+](=O)[O-])cc1 | inactive: 104% | inactive: 113% | inactive: 88.4% | inactive: 103% | inactive: 103% | inactive: 91.7% | inactive: 115% | inactive: 92.2% | inactive: 116% | inactive: 113%
26 | CCCNC(=O)c1ccc(N(CCCl)CCCl)cc1 | inactive: 106% | inactive: 105% | inactive: 90% | inactive: 114% | inactive: 95.8% | inactive: 83.8% | inactive: 110% | inactive: 105% | inactive: 89.6% | inactive: 105%
27 | CCOCCN(CCCl)Cc1ccccc1 | inactive: 111% | inactive: 95.5% | inactive: 100% | inactive: 103% | inactive: 96.3% | inactive: 88.6% | inactive: 104% | inactive: 99.8% | inactive: 97.5% | inactive: 105%
28 | Cc1ccc(S(=O)(=O)N(CCCN)CCCc2c(C)nc(N)[nH]c2=O)cc1 | inactive: 98.3% | inactive: 96.7% | inactive: 70.4% | inactive: 91.3% | inactive: 89.3% | inactive: 88.5% | inactive: 102% | inactive: 101% | inactive: 95.9% | inactive: 109%
29 | O=P1(N(CCCl)CCCl)NCCC(C(F)(F)F)O1 (stereo not given) | inactive: 96.6% | inactive: 106% | inactive: 110% | inactive: 98.8% | inactive: 98.3% | inactive: 106% | inactive: 100% | inactive: 97.3% | inactive: 102% | inactive: 102%
